System: HepG2 cells
Test: Cytotoxicity (CellTox Green) in parallel with metabolomics experiments
Conditions: intermediate concentration (C3; C2 for aroclor), 48 h

CC(=O)N1CCN(c2ccc(OCC3COC(Cn4ccnc4)(c4ccc(Cl)cc4Cl)O3)cc2)CC1 (stereo not shown) [Ketoconazole]
cytotoxicity (CellTox Green): low cytotoxicity

Source: PMC10693528, “A high-throughput metabolomics in vitro platform for the characterization of hepatotoxicity” (Cell Biology and Toxicology, 2023)
